Literature values as cited in patent publication US11173150B2, “Method for diagnosing, preventing, and treating neurological diseases” (United States Government As Represented By The Department …, priority 2010, dated 2021).

Tests used:
clostridia = settings: Haralambie et al. 1983; cited from earlier work
[1] = cited from earlier work

Row | Substance | Effect on clostridia in the bowel flora of adults (clostridia) | Absorption when given by the oral route [1]
1 | Trimethoprim/sulfamethoxazole [TMX/Sul] | major overgrowth of clostridia | absorbed well
2 | gentamicin | – | virtually unabsorbed
